In this test the test system is M. brassicae larvae. Put plainly: Droplet feeding assays, M. brassicae (Example 7). The conditions noted are these: fifth stadium; total of 160 μg fusion protein over four days or equivalent dose of Hv1a. Type of test: in vivo, Mamestra brassicae.

Regarding ω-ACTX-Hv1a, the survival to pupation entry is given as “all survived to pupation”.

(Values after patent US10117433B2 (priority 2011, dated 2018).)
